Measured values taken from patent US6458758B1, “Compositions and methods utilizing nitroxides in combination with biocompatible macromolecules” (Synzyme Technologies, Inc., priority 1993, dated 2002).

Tests used:
rats = assay: Transient MCA suture occlusion (2 h) and 22 h reperfusion in rats; assay type: in vivo, rat
Procedure: As a model of prophylactic therapy in the surgical/perioperative stroke setting, PNA was administered to mice both before MCA occlusion and after reperfusion. Because albumin alone may provide modest protection against cerebral ischemia, PNA was tested with both HSA and saline as controls.
Rats were subjected to 2 hours of suture occlusion of the MCA, followed by 22 hours of reperfusion. Drug or saline was administered IV in a total dose of 1% of body weight (v/w), divided as follows: ½ the total dose was given 5 minutes before MCA occlusion; ¼ of the total dose was given five minutes before the suture was removed to allow reperfusion of the MCA; and the final ¼ of the total dose was given 2 hours after reperfusion. Brain sections were stained with TTC.

[1] = system: leukocyte rolling and adhesion to endothelial cells; assay: Cigarette smoke induced leukocyte rolling, adhesion and aggregate formation, dorsal skinfold chamber; assay type: in vivo, Syrian Golden hamsters
Excerpt: The interactions of leukocytes with endothelial cells and platelets are an indicator of the microcirculatory response to several adverse physiological conditions, ranging from localized and systemic ischemia/reperfusion injury, rejection of organ grafts, and the response to the organism to various oxidizing novae. See also Lehr et al., PNAS, […]. The mediator role of reactive oxygen species has been documented in many in vitro and in vivo models and, as a consequence, antioxidants and radical scavengers have been applied to counteract leukocyte activation, aggregation, and adhesion to endothelium and the subsequent microcirculatory dysfunction.

[2] = Activation of TOPS by nitroxide-labelled proteins (ESR); assay type: biochemical; settings: 50 mM TOPS, sodium phosphate buffer pH 7.8, 2 min
Excerpt: FIGS. 18B, 18C, and 18D are ESR spectra showing activation of TOPS by three different nitroxide-labelled human proteins. FIGS. 18B and 18D show TOPS activation by albumin labelled with different species of nitroxide. FIG. 18C is nitroxide-labelled hemoglobin-based oxygen carrier.
As noted herein, the donor/acceptor relationship between two nitroxide containing species provides the ability for sustained nitroxide protection in vivo. The interaction of PNA and TPL as described with several of the embodiments is only one example of additional combinations provided by the invention. […] Thus, as referred to elsewhere herein, the multiple component embodiments may be formulated with different nitroxides or nitroxide-based compounds with different free-electron stabilities.

[3] = total dose 1% of body weight iv, divided

Substance | protective effect as compared to that of PNA (rats; rat, in vivo) | % infarction (rats; [3]) | mean infarct volume (rats; [3]) | aggregate formation ([1]; 15 MINUTES) | arteriolar rolling ([1]; 15 MINUTES) | arteriolar sticking ([1]; 15 MINUTES) | venular rolling ([1]; 15 MINUTES) | venular sticking ([1]; 15 MINUTES) | aggregate formation ([1]; 60 MINUTES) | arteriolar rolling ([1]; 60 MINUTES) | arteriolar sticking ([1]; 60 MINUTES) | venular rolling ([1]; 60 MINUTES) | venular sticking ([1]; 60 MINUTES) | aggregate formation ([1]; BASELINE) | arteriolar rolling ([1]; BASELINE) | arteriolar sticking ([1]; BASELINE) | venular rolling ([1]; BASELINE) | venular sticking ([1]; BASELINE) | leukocyte activation ([1]; cigarette smoke, compared with saline-treated controls) | activation of TOPS (ESR peak intensity) [2]
Human serum albumin: human serum albumin, control protein solution | approximately 50% | approximately 11±4% | 81±26 mm^3 | 0.7 ± 0.7 /30 sec | 0.1 ± 0.2 /mm | 0.0 ± 0.0 /mm^2 | 5.5 ± 0.9% | 0.0 ± 0.0 /mm^2 | 1.3 ± 1.1 /30 sec | 0.1 ± 0.2 /mm | 0.0 ± 0.0 /mm^2 | 6.9 ± 2.1% | 0.0 ± 0.0 /mm^2 | 0.6 ± 0.7 /30 sec | 0.0 /mm | 0.0 /mm^2 | 4.9 ± 0.2% | 0.0 ± 0.0 /mm^2 | inhibited activation | –
B3T labelled albumin | – | – | – | – | – | – | – | – | – | – | – | – | – | – | – | – | – | – | – | shown to activate TOPS
